For 35 molecules, activity change, negative = inhibition results are on record in PubChem BioAssay AID602233 (National Center for Advancing Translational Sciences (NCATS), 2012).

Values joined by “and” are separate entries in the source; they are usually repeats but may differ in a detail not shown here. Identical values can stand only once. The list shows a part of the results, in another mix than the full data. Some tests of the compounds listed are not included; inactive here does not mean inactive elsewhere. Active and inactive are the calls of the source. The call rests on the fitted dose curve; in most records, active means well fitted inhibition curve with a large enough effect; inconclusive means small, poorly fitted or top-dose-only effect; inactive means no such curve, though single readings can be large or run the other way.

The experiment has as its target Phosphoglycerate kinase, glycosomal (Trypanosoma brucei brucei) (UniProt P07378). Description: qHTS Assay to Find Inhibitors of Phosphoglycerate Kinase. Further: nearly all actives have a fitted effect of over 60% in size. Particulars: PGK/GAPDH coupled, Kinase-Glo luminescence, 60 min; activity change, negative = inhibition: at 57.5 µM (top of the series). The text has this:
Several species of the Trypanosomatidae family of parasitic protozoans cause a spectrum of diseases throughout the tropical and subtropical world. Sleeping sickness, caused by two subspecies of Trypanosoma brucei, is endemic to areas of sub-Saharan Africa, while Chagas disease, a manifestation of Trypanosoma cruzi infection, is prevalent throughout Central and South America. In addition, many species of Leishmania are responsible for a range of cutaneous and visceral diseases, causing ulcers, destructive lesions and kalaazar, a lethal infection of the viscera. Collectively, these organisms infect 30 million people worldwide (~500 million live in endemic areas), and account for ~130,000 deaths annually. Given their debilitating and prevalent nature, trypanosomatid parasites impose a heavy medical, economic and social burden on entire populations, primarily in the developing world. The problem is further exacerbated by the fact that existing treatments have progressed little in the past 50 years, and current drugs show high toxicity and poor efficacy. […] Blood-stream stages of T. brucei are entirely dependent on glycolysis as a source of ATP, and the tricarboxylic acid cycle and oxidative phosphorylation are both repressed. Glycolysis in axenically cultured T. cruzi, representing the intracellular pathogenic stage, is also essential for these parasites. […] Previous studies have shown that the glycolytic enzyme, phosphoglycerate kinase (PGK), is a viable target for drugs to kill these parasites. […] NIH Molecular Libraries Probe Production Network [MLPCN] NIH Chemical Genomics Center [NCGC] MLPCN Grant: R03 MH093212 PI Name: Malcolm Walkinshaw, University of Edinburgh
3ul of substrate/PGK buffer (columns 1,2,5-48) are dispensed into Greiner white solid bottom 1536-well assay plates; columns 3-4 receive only TEA buffer as 0x PGK controls. Compounds are then transferred via Kalypsys pin tool equipped with 1536-pin array (10nl slotted pins, V&P Scientific, San Diego, CA). Following addition of compound, 1ul of GAPDH (100nM final concentration, all columns) is added to initiate the reaction (this upstream coupling enzyme is necessary for in-well production of PGK substrate, 1,3-bisphosphoglycerate (1,3-BPG), which is unstable and not commercially available). The plates are then incubated at room temperature for 60 minutes. Kinase-Glo Plus reagent is added (2ul) and plates incubated for 10 minutes, before being transferred to a ViewLux high-throughput CCD imager (PerkinElmer) wherein single end-point measurements of luminescence are acquired using a clear filter. All reagents are diluted in an assay buffer consisting of 100mM TEA (pH 7.6), 5mM MgCl2 and 0.01% Tween-20.
Turning to `COc1ccc(Br)c(C(=O)NCC2(N3CCCCC3)CCCCC2)c1`, the activity change, negative = inhibition is inactive: -0.958%.
The result for `COc1cc(C(=O)NCC2(N(C)C)CCCCC2)cc(OC)c1OC` reads inactive: -4.95%; that for `Cc1cccc(C(=O)NCC2(N(C)C)CCCCC2)c1`, inactive: 7%.
Regarding `C=C(C)C#CC(O)(C(=O)OC1CCN(C)CC1)c1ccccc1` (stereo not given), the activity change, negative = inhibition is inactive: -6.76%.
With `CN(C)c1cccc(C(=O)NCC2(N(C)C)CCCCC2)c1`, the activity change, negative = inhibition was inactive: -8.33%.
As to `O=C(OCCN1CCCC1)C(O)(c1ccccc1)c1ccccc1`, the activity change, negative = inhibition was inactive: -4.53%.
The result for `CC(C)Oc1ccc(C(=O)NCC2(N(C)C)CCCCC2)cc1` reads inactive: 5.89% and inactive: 5.65%.
In the case of `O=C(OC1CN2CCC1CC2)C(CO)(c1ccccc1)c1ccccc1` (stereo not given), the activity change, negative = inhibition is inactive: 1.39%.
Consider `COc1cccc(C(=O)NCC2(N3CCOCC3)CCCCC2)c1`, for which the activity change, negative = inhibition was inactive: -18.9%.
As to `CC(C)COc1ccc(C(=O)NCC2(N(C)C)CCCCC2)cc1`, the activity change, negative = inhibition entry is “inactive”.
For the molecule `COc1ccc(C(=O)NCC2(N(C)C)CCCCC2)cc1Cl`, the activity change, negative = inhibition is inactive: 2.44%.
In the case of `COc1ccc(Cl)cc1C(=O)NCC1(N(C)C)CCCCC1`, the activity change, negative = inhibition was inactive: -6.09%.
With `COc1cccc(C(=O)NCC2(N3CCCCC3)CCCCC2)c1`, the activity change, negative = inhibition is inactive: -1.18%.
On to `O=C(NCC1(N2CCCCC2)CCCCC1)c1cccc(Cl)c1`, for which the activity change, negative = inhibition is inactive: 3.9%.
For `CN(C)C1(CNC(=O)c2ccc(Br)cc2)CCCCC1`, the activity change, negative = inhibition was inactive: -2.44%.
`O=C(NCC1(N2CCCCC2)CCCCC1)c1cc(F)c(F)cc1Cl`: the activity change, negative = inhibition is inactive: -6.29%.
Take `C=CCN1CCN(CCOC(=O)C(O)(c2ccccc2)c2ccccc2)CC1`: the activity change, negative = inhibition is inactive: -8.73%.
Turning to `O=C(NCC1(N2CCCCC2)CCCCC1)c1cccc(Br)c1`, the activity change, negative = inhibition is inactive: -5.33%.
Regarding `CCN1CCCC(OC(=O)C2(O)c3ccccc3C=Cc3ccccc32)C1` (stereo not given), the activity change, negative = inhibition was inactive: -0.719%.
Consider `Cc1cc(C(=O)NCC2(N3CCCCC3)CCCCC2)ccc1[N+](=O)[O-]`, for which the activity change, negative = inhibition result was “inactive”.
With `CCOc1cccc(C(=O)NCC2(N(C)C)CCCCC2)c1`, the activity change, negative = inhibition was inactive: -3.01%.
Turning to `COc1ccc(C(=O)NCC2(N(C)C)CCCCC2)cc1`, the activity change, negative = inhibition is inactive: -1.96%.
In the case of `CN(C)c1ccc(C(=O)NCC2(N(C)C)CCCCC2)cc1`, the activity change, negative = inhibition is inactive: -3.12%.
Take `CN(C)C1CCCC1OC(=O)C(O)(c1ccccc1)c1ccccc1` (stereo not given): the activity change, negative = inhibition was inactive: -4.58%.
Regarding `Cc1ccccc1C(=O)NCC1(N2CCCCC2)CCCCC1`, the activity change, negative = inhibition entry was “inactive”.
For `CN(C)C1(CNC(=O)c2ccccc2[N+](=O)[O-])CCCCC1` the value was inactive: 1.37%; for `CCCCOc1ccccc1C(=O)NCC1(N(C)C)CCCCC1`, inactive: -4.97%; for `CC(C)N1C(=O)CC2(CCN(CCOC(=O)C(O)(c3ccccc3)c3ccccc3)CC2)C1=O`, inactive: 4.99%.
For the molecule `COc1cc(SC)ccc1C(=O)NCC1(N(C)C)CCCCC1`, the activity change, negative = inhibition was inactive: 1.52%.
The result for `CN(C)C1(CNC(=O)c2cccc(Cl)c2)CCCCC1` reads inactive: 1.24%.
For the molecule `CCN(CC)CC(C)C(C)OC(=O)C(O)(c1ccccc1)c1ccccc1` (stereo not given), the activity change, negative = inhibition was inactive: -9.56%.
`CN(C)C1(CNC(=O)c2ccccc2F)CCCCC1`: the activity change, negative = inhibition is inactive: -0.802%.
For `Cc1ccc(C(=O)NCC2(N3CCCCC3)CCCCC2)cc1` the value was inactive: -5.92%; for `O=C(NCC1(N2CCCCC2)CCCCC1)c1cc([N+](=O)[O-])ccc1Cl`, “inactive”.
For the molecule `CN1[C@@H]2CC[C@H]1CC(OC(=O)C(O)(c1ccccc1)c1ccccc1)C2` (stereo not given in full), the activity change, negative = inhibition entry was “inactive”.
